According to patent publication US7547806B2, “Tannate salt of rasagiline” (Teva Pharmaceutical Industries, Ltd., priority 2006, dated 2009):

Experiments:
[1] = compared with other salts of rasagiline
[2] = Water content by thermal gravimetric analysis (TGA); assay type: physicochemical; details: solid product
Experimental: (§1) Thermal gravimetric analysis (TGA) was applied for measuring amounts of volatiles (residual solvents and water) in the solid. Water content was measured by Karl Fischer method (KF).

[3] = Water content by Karl Fischer method (KF); assay type: physicochemical; details: solid product
Experimental: as §1

[4] = Hygroscopicity after one month storage in closed containers; assay type: physicochemical; set-up: key: 1: non-hygroscopic, no visible change observed; 2: slightly hygroscopic, aggregation and lumping developed, loss of flowability; 3: hygroscopic, semi-solid material; 4: deliquescent, liquefied syrup-like product; details: after one month in closed containers at room temperature in atmospheric air (relative humidity ~50-80%)
Experimental: The hygroscopicity was determined after one month in closed containers at room temperature in atmospheric air (relative humidity ˜50-80%)
The observed samples could be divided into four groups in accordance to their hygroscopic properties:
1=non-hygroscopic, no visible change observed
2=slightly hygroscopic, aggregation and lumping developed, loss of flowability
3=hygroscopic, semi-solid material
4=deliquescent, liquefied syrup-like product

| Water content, % By TGA [2] [%] | Water content, % By KF [3] [%] | Hygroscopicity [4] | Substance | Water solubility [1] |
| --- | --- | --- | --- | --- |
| – | – | – | rasagiline tannate | low water solubility |
| 3.4 | 3.4 | 1 | rasagiline tannate [Example 3] | – |
| 5.2 | 4.5 | 1 | rasagiline tannate [Example 4] | – |
